US20210040193A1 (published 2021)

Experiments:
Experiment in all cases: ELISA
[1] = molecular target: T1, human VEGF (Beijing Sino Biological Inc., Catalog No. 11066-HNAH) (human, UniProt P15692 27-191)
[2] = molecular target: T1, human VEGF (Beijing Sino Biological …); remark: listed apart in the source
[3] = molecular target: T1, human VEGF (Beijing Sino Biological …); remark: listed apart in the source
[4] = molecular target: T2, mouse VEGF (Beijing Sino Biological Inc., Catalog No. 50159-MNAB) (mouse, UniProt Q00731 27-190)
T2 chain: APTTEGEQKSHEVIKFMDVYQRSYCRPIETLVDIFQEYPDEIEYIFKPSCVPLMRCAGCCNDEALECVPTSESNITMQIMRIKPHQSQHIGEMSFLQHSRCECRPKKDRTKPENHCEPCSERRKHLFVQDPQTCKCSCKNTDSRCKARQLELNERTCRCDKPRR

B1: anti PD-1(BJHM)/VEGF(Bevaci) heterodimeric antibody (bispecific antibody)
heavy 1: EVNLVESGGGLVQPGGSLRLSCAASGFTFSSYGMSWVRQAPGKGLEWVASISGGGRYTYYPDSMKGRFTISRDNSKNNLYLQMNSLRAEDTAVYYCVYEYFYTMDYWGQGTLVTVSSASTKGPSVFPLAPSSKSTSGGTAALGCLVKDYFPEPVTVSWNSGALTSGVHTFPAVLQSSGLYSLSSVVTVPSSSLGTQTYICNVNHKPSNTKVDKKVEPKSCDKTHTCPPCPAPELLGGPSVFLFPPKPKDTLMISRTPEVTCVVVDVSHEDPEVKFNWYVDGVEVHNAKTKPREEQYASTYRVVSVLTVLHQDWLNGKEYKCKVSNKALPAPIEKTISKAKGQPREPQVYTLPPSRDELTKNQVSLLCLVKGFYPSDIAVEWESNGQPENNYKTTPPVLRSDGSFFLYSKLTVDKSRWQQGNVFSCSVMHEALHNHYTQKSLSLSPGK
light 1: DIVLTQSPATLSLSPGERATLSCRASQSISNNLHWYQQKPGQAPRLLIRFASQSISGIPARFSGSGSGTDFTLTISSLEPEDFAVYFCQQSDNWPLTFGGGTKVEIKRTVAAPSVFIFPPSDEQLKSGTASVVCLLNNFYPREAKVQWKVDNALQSGNSQESVTEQDSKDSTYSLSSTLTLSKADYEKHKVYACEVTHQGLSSPVTKSFNRGEC
heavy 2: EVQLVESGGGLVQPGGSLRLSCAASGYTFTNYGMNWVRQAPGKGLEWVGWINTYTGEPTYAADFKRRFTFSLDTSKSTAYLQMNSLRAEDTAVYYCAKYPHYYGSSHWYFDVWGQGTLVTVSSASTKGPSVFPLAPSSKSTSGGTAALGCLVKDYFPEPVTVSWNSGALTSGVHTFPAVLQSSGLYSLSSVVTVPSSSLGTQTYICNVNHKPSNTKVDKKVEPKSCDKTHTCPPCPAPELLGGPSVFLFPPKPKDTLMISRTPEVTCVVVDVSHEDPEVKFNWYVDGVEVHNAKTKPREEQYASTYRVVSVLTVLHQDWLNGKEYKCKVSNKALPAPIEKTISKAKGQPREPQVYTEPPSRDELTKNQVSLTCLVKGFYPSDIAVEWESNGQPENNYKTTPPVLDSDGSFFLLSVLTVDKSRWQQGNVFSCSVMHEALHNHYTQKSLSLSPGK
light 2: not shown
EC50 [1]: 0.054 nM

B3: anti-VEGF(Bevaci)/PD-1(BJHM) heterodimeric antibody (bispecific antibody)
heavy 1: B1 heavy 2 with E357L, T372L, D405R, L413Y, V415K
light 1: not shown
heavy 2: B1 heavy 1 with L351E, L366T, R399D, Y407L, K409V
light 2: B1 light 1
EC50 [1]: 0.056 nM

B5: VEGF (G631) monoclonal antibody (antibody, V domains shown)
VH: EVQLVESGGGLVQPGGSLRLSCAASGFTISDYWIHWVRQAPGKGLEWVAGITPAGGYTYYADSVKGRFTISADTSKNTAYLQMNSLRAEDTAVYYCARFVFFLPYAMDYWGQGTLVTVSS
VL: DIQMTQSPSSLSASVGDRVTITCRASQDVSTAVAWYQQKPGKAPKLLIYSASFLYSGVPSRFSGSGSGTDFTLTISSLQPEDFATYYCQQGYGNPFTFGQGTKVEIK
EC50 [4]: 0.046 nM
IC50 [3]: 0.11 nM

Results, then the binder that gave them:

EC50 [2]: 0.139 nM
IC50 [3]: 0.132 nM
B2: anti-PD-1 (BJHM)/VEGF (G631) heterodimeric antibody (bispecific antibody)
heavy 1: B1 heavy 1
light 1: B1 light 1
heavy 2: EVQLVESGGGLVQPGGSLRLSCAASGFTISDYWIHWVRQAPGKGLEWVAGITPAGGYTYYADSVKGRFTISADTSKNTAYLQMNSLRAEDTAVYYCARFVFFLPYAMDYWGQGTLVTVSSASTKGPSVFPLAPSSKSTSGGTAALGCLVKDYFPEPVTVSWNSGALTSGVHTFPAVLQSSGLYSLSSVVTVPSSSLGTQTYICNVNHKPSNTKVDKKVEPKSCDKTHTCPPCPAPELLGGPSVFLFPPKPKDTLMISRTPEVTCVVVDVSHEDPEVKFNWYVDGVEVHNAKTKPREEQYASTYRVVSVLTVLHQDWLNGKEYKCKVSNKALPAPIEKTISKAKGQPREPQVYTEPPSRDELTKNQVSLTCLVKGFYPSDIAVEWESNGQPENNYKTTPPVLDSDGSFFLLSVLTVDKSRWQQGNVFSCSVMHEALHNHYTQKSLSLSPGK
light 2: not shown

EC50 [4]: 0.088 nM
EC50 [2]: 0.208 nM
IC50 [3]: 0.137 nM
B4: anti-PD-1 (Pembro)/VEGF (G631) heterodimeric antibody (bispecific antibody)
heavy 1: QVQLVQSGVEVKKPGASVKVSCKASGYTFTNYYMYWVRQAPGQGLEWMGGINPSNGGTNFNEKFKNRVTLTTDSSTTTAYMELKSLQFDDTAVYYCARRDYRFDMGFDYWGQGTTVTVSSASTKGPSVFPLAPSSKSTSGGTAALGCLVKDYFPEPVTVSWNSGALTSGVHTFPAVLQSSGLYSLSSVVTVPSSSLGTQTYICNVNHKPSNTKVDKKVEPKSCDKTHTCPPCPAPELLGGPSVFLFPPKPKDTLMISRTPEVTCVVVDVSHEDPEVKFNWYVDGVEVHNAKTKPREEQYASTYRVVSVLTVLHQDWLNGKEYKCKVSNKALPAPIEKTISKAKGQPREPQVYTLPPSRDELTKNQVSLLCLVKGFYPSDIAVEWESNGQPENNYKTTPPVLRSDGSFFLYSKLTVDKSRWQQGNVFSCSVMHEALHNHYTQKSLSLSPGK
light 1: EIVLTQSPATLSLSPGERATLSCRASKGVSTSGYSYLHWYQQKPGQAPRLLIYLASYLESGVPARFSGSGSGTDFTLTISSLEPEDFAVYYCQHSRDLPLTFGGGTKVEIKRTVAAPSVFIFPPSDEQLKSGTASVVCLLNNFYPREAKVQWKVDNALQSGNSQESVTEQDSKDSTYSLSSTLTLSKADYEKHKVYACEVTHQGLSSPVTKSFNRGEC
heavy 2: B2 heavy 2
light 2: not shown

Positions count from the first letter of the chain named. Like-named read-outs stand apart in the source and are kept apart here. One block for each binder: values may come before it.
